Test [1] addresses ACKR3 fused to Renilla luciferase 3 (ACKR3-Rluc3) (human) (UniProt P25106).
Another test deals with R197C-ACKR3 (human) (UniProt P25106). Nature of the test: cross-linking; disulfide trapping: Cys mutants of receptor and chemokine coexpressed in Sf9, purified on TALON in DDM/CHS; non-reducing 10% SDS-PAGE, Coomassie staining and western blot (anti-FLAG, anti-HA). (In general: In western blotting, separated proteins are transferred to a membrane and probed.)

By UniProt entry, the sequences of proteins in these tests, tags left out. Residues count along the entry.
UniProt P25106, 2-362 R197C: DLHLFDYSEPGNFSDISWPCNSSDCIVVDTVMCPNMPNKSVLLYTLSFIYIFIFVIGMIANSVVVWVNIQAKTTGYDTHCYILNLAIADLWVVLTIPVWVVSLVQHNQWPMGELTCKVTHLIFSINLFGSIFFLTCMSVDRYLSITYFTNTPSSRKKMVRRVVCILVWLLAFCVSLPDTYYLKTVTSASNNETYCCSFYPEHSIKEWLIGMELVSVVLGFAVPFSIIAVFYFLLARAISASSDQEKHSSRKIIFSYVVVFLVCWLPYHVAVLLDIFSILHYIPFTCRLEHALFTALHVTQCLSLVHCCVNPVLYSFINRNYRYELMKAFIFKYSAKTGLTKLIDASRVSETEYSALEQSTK

Regarding “recombinant CXCL12 from E. coli (residues 22-89 of CXCL12α) (from UniProt P48061-2 22-89) (ligand)”, the potency (EC50) of CXCL12-induced β-arrestin-2 recruitment to ACKR3-Rluc3, BRET in HEK293 cells in test [1] is 8.5 nM.

In the case of Y7C-CXCL12 (ligand), the percent disulfide-trapped complex with R197C-ACKR3 (human) came to 100%.

These data come from article PMC5253664.
